{
  "source": "patent US7928060B2",
  "about": "“Amylin family polypeptide-6 (AFP-6) analogs and methods of making and using them” (Amylin Pharmaceuticals, Inc., priority 2004, dated 2011)",
  "test_system": "NIH/Swiss mice",
  "experiment": "acute food intake assay in overnight-fasted mice, IP injection",
  "format": "in vivo, mouse",
  "procedure": "The effect of AFP-6 on food intake was investigated using an acute food intake assay. This assay measured food consumption in lean, group-housed, overnight-fasted NIH/Swiss mice. 12 mice were housed 3 to a cage. The sample compound, in this case AFP-6, was injected IP in mice and food intake was measured during the next 2-hours. Decreased, as well as increased, food intake can be measured. Testing various doses of the compound generated ED50's. The assay was performed as follows: 1. Remove food (water ad libitum) at 5:00 pm the evening before the study. 2. Weigh food pellets (3 pellets/cage). 3. Inject animals intraperitoneally with 200 ul of appropriate solution, t=0. 4. Immediately add pre-weighed food to each cage (away from water bottle spout) and allow animals to feed undisturbed. 5. At 30, 60, and 120 minutes, collect and weigh food. 6. Analyze data. Data points represent mean ±sd of n=12.\nTwelve mice were injected IP at t=0 for each dose, 0.3, 1, 3, 10, 30, 100, or 300 nmol/kg of AFP-6 (Amylin Pharmaceuticals, Inc.) (n=12/group). Food was introduced immediately after injection and amount consumed measured at t=30, 60, and 120 min.",
  "data": [
    {"substance": "r/h CGRP: Amylin Family polypeptide of Table 3; r/h not resolved per value", "values": [
      {"measurement": "FI 30 min ED50", "setting": "30 min", "result": 0.9, "unit": "nmol/kg"},
      {"measurement": "FI 60 min ED50", "setting": "60 min", "result": 4.2, "unit": "nmol/kg"}
    ]}
  ]
}
